From patent US8362267B2, “Benzophenone thiazole derivatives useful for inhibiting formation of microtubule and method for producing the same” (Chong Kun Dang Pharmaceutical Corp., priority 2008, dated 2013)

How the values were obtained:
[1] = system: MKN45 (human gastric adenocarcinoma, #80103); assay: In vivo antitumor activity, human xenograft, stomach cancer model MKN45
Protocol: (§1) BALB/c male nude mice (4 weeks) available from Central Lab Animal Inc. were used for human xenograft experiments. Sterile food and potable water were freely provided to the mice in an isolated sterile cage and the temperature of the cage was maintained at 23±0.5° C.
(§2) A human cancer model, CX-1 (human colon adenocarcinoma), for xenograft experiment was obtained from the German Cancer Research Center (DKFZ), and HCT-15 (human colorectal adenocarcinoma, CCL-225) and A549 (human lung carcinoma, CCL-185) were obtained from ATCC (American Type Culture Collection, Rockville, Md., USA). Human tumor cells, MKN45 (human gastric adenocarcinoma, #80103) and calu-6 (human lung carcinoma, #30056) were obtained from KCLB (Korean Cell Line. Bank).
(§3) CX-1 was incubated in a 95% air incubator (37° C., 5% CO2) using a DMEM (Dulbecco's Modified Eagle's Medium, Gibco) supplemented with 10% heat-inactivated fetal bovine serum (Gibco) and 1% Antibiotics-Antimycotics (Gibco). Other cell lines were incubated in a 95% air incubator (37° C., 5% CO2) using an RPM1640 (Gibco BRL) medium supplemented with 10% heat-inactivated fetal bovine serum (Gibco) and 1% Antibiotics-Antimycotics (Gibco).
(§4) In vivo human xenograft experiments were performed in accordance with the following procedure. In vitro proliferated human-derived cancer cell lines (CX-1, HCT-15, A549, MKN45, calu-6) were subcutaneously injected into the abdominal region of BALB/c nude mice and were thus proliferated in vivo. After 20 to 25 days, the mice were sacrificed by cervical spine dislocation, solid cancer cells proliferated in the mice were sterilely separated and fresh cancer cells from which connective or necrotic tissues or skin were removed were collected. The fragments of tumor were transplanted to the BALB/c nude mice. […]
(§5) After administration, antitumor activity was evaluated based upon an antitumor inhibition rate (IR %) of tumor growth, obtained by comparing a tumor volume measured on the final day with a tumor volume of a control group. […]

[2] = system: calu-6 (human lung carcinoma, #30056); assay: In vivo antitumor activity, human xenograft, non-small cell lung cancer model calu-6
Protocol: as §1, §2, §3, §4, §5

[3] = system: HCT-15 (human colorectal adenocarcinoma, CCL-225); assay type: in vivo; conditions: for Number of dead animals: HCT-15 xenograft, q4d x 4 (i.p.)
Protocol: as §1, §2, §3
In vivo human xenograft experiments were performed in accordance with the following procedure. In vitro proliferated human-derived cancer cell lines (CX-1, HCT-15, A549, MKN45, calu-6) were subcutaneously injected into the abdominal region of BALB/c nude mice and were thus proliferated in vivo. After 20 to 25 days, the mice were sacrificed by cervical spine dislocation, solid cancer cells proliferated in the mice were sterilely separated and fresh cancer cells from which connective or necrotic tissues or skin were removed were collected. The fragments of tumor were transplanted to the BALB/c nude mice.
The mice in which cancer cells were proliferated to a predetermined size were collected on the 15th to 30th day after human-derived cancer models were transplanted into the BALB/c nude mice and then used for the tests. For each experimental group, the drug was injected at a dose of 0.1 mL per 10 g of mouse in accordance with a dose schedule, when tumor cells were grown to a size of 100 to 200 mm^3 after tumor transplantation.
After administration, antitumor activity was evaluated based upon an antitumor inhibition rate (IR %) of tumor growth, obtained by comparing a tumor volume measured on the final day with a tumor volume of a control group. As the reference drug, AC7700 (Sanofi-Aventis), which is currently undergoing phase III clinical trials, was used. Tumor size=(short diameter)^2×(long diameter)/2 I.R.(%)=[1−(average tumor size of drug-administered group)/(average tumor size of control group)]×100

[4] = male, BALB/c nude, mouse, in vivo, ip, 5 mg/kg

For `COc1cc(C(=O)c2ccc(-c3csc(NC(=O)[C@@H](N)C(C)C)n3)cc2-n2cncn2)cc(OC)c1OC` [Compound 624, (S)—N-(4-(3-(1H-1,2,4-triazol-1-yl)-4-(3,4,5-trimethoxybenzoyl)phenyl)thiazol-2-yl)-2-amino-3-methylbutanamide], the “Number of dead animals” value ([1]; MKN45 xenograft, 7.5 mg/kg, q4d x 4 (i.p.)) was 0/6, the “Number of dead animals” value ([1]; MKN45 xenograft, 10 mg/kg, q4d x 4 (i.p.)) was 0/6 and the “Number of dead animals” value [1, 4] was 0/6. The “Number of dead animals” value ([2]; calu-6 xenograft, 7.5 mg/kg, q4d x 4 (i.p.)) was 0/6, the “Number of dead animals” value ([2]; calu-6 xenograft, 10 mg/kg, q4d x 4 (i.p.)) was 0/6 and the “Number of dead animals” value [2, 4] was 0/6. For the same compound, the “pharmaceutical effects as compared with the reference drug” value ([3]; HCT-15 xenograft model, in words) was “significantly superior pharmaceutical effects”, the “Number of dead animals” value ([3]; 5 mg/kg) was 0/6 and the “Number of dead animals” value ([3]; 7.5 mg/kg) was 0/6. For the same compound, the “Number of dead animals” value ([3]; 10 mg/kg) was 0/6.

Like-named read-outs stand apart in the source and are kept apart here.
